Laboratory results reported in EP0417987B1, “Fabric softening” (UNILEVER PLC, priority 1989, dated 1991).

Test: pKa of amine softening materials (titration curve of a 1% dispersion with acid)
Assay type: physicochemical
Details: amine softening material
Source text: The pKa value is a well-known parameter related to the protonation of materials. For a certain amine material the pKa can be determined by considering the protonation reaction of the amine material: amine + H⁺ -------- amineH⁺ The pKa of the amine is the pH value, at which the amount of unprotonated amine is equal to the amount of protonated amine. […]

“dihardened tallow methyl amine [Armeen M2HT]” gave a pKa of 4.5.
